Biological target: (Pro-Hyp-Gly)10
Test: critical concentration

Q: How did the critical concentration turn out when (Pro-Hyp-Gly)10 (peptide) was run?
A: The critical concentration was 2 mg/mL.
